This assay has as its target recombinant human MAO-B (Homo sapiens, UniProt P27338). In words: Monoamine oxidase-B inhibition assay (Amplex red fluorescence). It is filed as biochemical. The following applies: calculated from MAO-A and MAO-B IC50 values.

Chains of the proteins cited; added tags and fusions are not shown.
UniProt P27338, whole entry, looked up: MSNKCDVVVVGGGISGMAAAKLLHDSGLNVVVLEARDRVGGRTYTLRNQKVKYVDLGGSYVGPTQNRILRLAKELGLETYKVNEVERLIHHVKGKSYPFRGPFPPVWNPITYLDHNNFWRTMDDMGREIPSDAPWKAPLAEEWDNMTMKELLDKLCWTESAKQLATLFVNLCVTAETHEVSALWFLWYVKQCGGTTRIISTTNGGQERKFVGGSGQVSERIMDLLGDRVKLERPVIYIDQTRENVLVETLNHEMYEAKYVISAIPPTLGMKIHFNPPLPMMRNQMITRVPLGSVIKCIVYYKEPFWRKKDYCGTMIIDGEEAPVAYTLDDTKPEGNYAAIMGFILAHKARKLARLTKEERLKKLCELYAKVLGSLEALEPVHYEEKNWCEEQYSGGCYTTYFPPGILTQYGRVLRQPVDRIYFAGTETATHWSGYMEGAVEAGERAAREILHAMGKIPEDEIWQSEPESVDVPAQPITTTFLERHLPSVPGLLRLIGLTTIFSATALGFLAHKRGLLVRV

Where only a bound is given, the exact number is not on record here.

As for `COc1cc(/C=C2\Oc3cc(OCCN4CCCC4)ccc3C2=O)cc(OC)c1OC` [Compound 3bc], the MAO-B Selectivity Index was above 289.

The record behind these values is publication PMC10215199 (Antioxidants, 2023).
